{
  "source": "patent US9999613B2",
  "about": "“2H-chromene derivatives as analgesic agents” (OBSHESTVO S OGRANICHENNOI OTVETSVENNOSTJU “LEOFORS”, priority 2014, dated 2018)",
  "origin": "cited, not measured here",
  "conditions": "from ref. [2]; cited from earlier work",
  "data": [
    {"smiles": "O=C(O)Cc1ccccc1Nc1c(Cl)cccc1Cl", "note": "[Sodium diclofenac, reference compound]", "values": [
      {"measurement": "therapeutic index (IS50)", "value": 74}
    ]}
  ]
}
